This is an account of results in US20250084409A1, “COMPOSITIONS AND METHODS FOR CAPPING RNAS” (Verve Therapeutics, Inc., priority 2022, published 2025).

Sequences of proteins named here, by UniProt entry; tags and fusion partners are left off. A change or cut given only in a name is not applied to a line headed by its entry.
UniProt Q06151: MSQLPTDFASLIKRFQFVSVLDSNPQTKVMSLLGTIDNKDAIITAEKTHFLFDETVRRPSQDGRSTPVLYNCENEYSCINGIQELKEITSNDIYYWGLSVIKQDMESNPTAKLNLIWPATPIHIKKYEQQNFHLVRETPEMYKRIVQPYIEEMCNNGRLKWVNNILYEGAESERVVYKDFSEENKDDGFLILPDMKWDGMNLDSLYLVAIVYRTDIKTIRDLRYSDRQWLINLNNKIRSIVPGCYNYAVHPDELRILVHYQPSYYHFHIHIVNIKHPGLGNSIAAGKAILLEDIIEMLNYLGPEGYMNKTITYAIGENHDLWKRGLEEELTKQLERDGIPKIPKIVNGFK

The subject of test [1] is ribosomes and initiation factors like eIF4E. Format: biochemical. The following applies: rabbit reticulocyte lysate; inhibition of luciferase signal relative to 1002a; FIG. 16.
Test [2] concerns the target T1, recombinant yeast pyrophosphatase, DcpS (Saccharomyces cerevisiae, UniProt Q06151).
T1 construct: purchased
The test is classed as biochemical. The following applies: DcpS with 8-40 μM analog; relative to 1002a; FIG. 15.

The subject of test [3] is Primary human hepatocytes. The test is described as follows: Luciferase expression in primary human hepatocytes. Format: cell-based. The note with it: 6 hours after transfection, both transfection doses, compared to 1002a. An excerpt: The harvested cell lysate was subjected to conditions to derive a quantifiable fluorescent signal. This signal was then compared to analog 1002a to determine how structural differences may be related to the changes in expression. Primary human hepatocytes were subjected to two different doses of mRNA encoding for the protein luciferase made using the indicated test analogs. A single RNA molecule may be interpreted by protein synthesis machinery multiple times, so an analog that may increase the frequency of interpretation may be desirable as a 5′ initiator. This frequency of interpretation, or translation efficiency, may be determined by measuring the amount of protein produced in a population of cells exposed to a known amount of RNA at a given point following that exposure. The duration of expression may also be assessed to determine how an analog may sustain the observed expression, as the RNA molecule is eventually decayed within the cell thereby destroying its protein-encoding capacity. […] Similar protein expression profiles was also observed at 24 hours post transfection (FIG. 17b).

With `COC1C(OP([O-])(=S)OCC2OC(n3cnc4c(=O)[nH]c(N)nc43)C(O)C2O)C(COP(=O)(O)OP(=O)(O)OP(=O)(O)OCC2OC(n3c[n+](C)c4c(=O)[nH]c(N)nc43)C(O)C2O)OC1n1cnc2c(N)ncnc21` (stereo not shown) [1007a, m^7G(ppp) Am(ps)G], the “relative ribosome affinity (ribosome recruitment)” value (from here on “relative ribosome affinity”) in test [1] is listed as “slightly less efficient”.
As for `COC1C(OP(=O)(O)OCC2OC(n3cnc4c(=O)[nH]c(N)nc43)C(O)C2O)C(COP(=O)(O)OP(=O)([O-])OP(=O)(O)OCC2OC(n3c[n+](Cc4ccc(Cl)cc4)c4c(=O)[nH]c(N)nc43)C(O)C2O)OC1n1cnc2c(N)ncnc21` (stereo not shown) [compound 5231, 4-Cl-Bn7G(ppp) Am(p)G], the relative pyrophosphatase resistance result in test [2] is “more stable than 1002a, 1007a and 1007a_D1”. For the same molecule, in test [1], the “relative ribosome affinity” value is recorded as “most efficient ribosome recruitment”.
For the molecule `COC1C(O[P@@]([O-])(=S)OCC2OC(n3cnc4c(=O)[nH]c(N)nc43)C(O)C2O)C(COP(=O)(O)OP(=O)(O)OP(=O)(O)OCC2OC(n3c[n+](C)c4c(=O)[nH]c(N)nc43)C(O)C2O)OC1n1cnc2c(N)ncnc21` (stereo partly shown) [1007a_D1, m^7G(ppp) Am(ps)G], in test [1], the “relative ribosome affinity” value was “slightly less efficient”. The relative luciferase expression result in test [3] is “most cap analogs except 1007a_D1 showed similar expression”.
Turning to `COC1C(O[P@]([O-])(=S)OCC2OC(n3cnc4c(=O)[nH]c(N)nc43)C(O)C2O)C(COP(=O)(O)OP(=O)(O)OP(=O)(O)OCC2OC(n3c[n+](C)c4c(=O)[nH]c(N)nc43)C(O)C2O)OC1n1cnc2c(N)ncnc21` (stereo partly shown) [1007a_D2, m^7G(ppp) Am(ps)G], the relative pyrophosphatase resistance entry in test [2] is “most pyrophosphatase resistant”. Moreover, the “relative ribosome affinity” value in test [1] is “lowest ribosome affinity”.
